The text below walks through data of BindingDB's records for doi:10.1016/j.bmc.2007.01.011 (Pomona College, 2007).

Protein sequences, listed by entry. Tags and fused reporters are not part of them. Lines headed by an entry give the natural chain unless they say otherwise; changes in a name come on top.
UniProt P08254: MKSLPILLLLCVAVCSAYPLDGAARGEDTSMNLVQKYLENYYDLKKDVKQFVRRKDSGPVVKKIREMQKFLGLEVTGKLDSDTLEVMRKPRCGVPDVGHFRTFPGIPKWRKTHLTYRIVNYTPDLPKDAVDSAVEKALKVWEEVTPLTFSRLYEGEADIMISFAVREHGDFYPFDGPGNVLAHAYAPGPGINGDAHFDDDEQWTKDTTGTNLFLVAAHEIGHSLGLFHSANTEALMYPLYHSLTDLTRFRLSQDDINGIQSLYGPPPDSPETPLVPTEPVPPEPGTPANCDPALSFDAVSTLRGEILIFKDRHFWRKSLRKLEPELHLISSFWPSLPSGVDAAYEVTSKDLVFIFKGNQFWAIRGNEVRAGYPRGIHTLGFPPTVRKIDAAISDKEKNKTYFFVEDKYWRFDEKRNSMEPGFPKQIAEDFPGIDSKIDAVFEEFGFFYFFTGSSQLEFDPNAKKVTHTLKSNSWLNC

The target in assay [1] is Stromelysin-1 (Homo sapiens, UniProt P08254).
For assay [2], the target named is T1, Interstitial collagenase (Homo sapiens, UniProt P03956).
T1 sequence (P03956 whole entry): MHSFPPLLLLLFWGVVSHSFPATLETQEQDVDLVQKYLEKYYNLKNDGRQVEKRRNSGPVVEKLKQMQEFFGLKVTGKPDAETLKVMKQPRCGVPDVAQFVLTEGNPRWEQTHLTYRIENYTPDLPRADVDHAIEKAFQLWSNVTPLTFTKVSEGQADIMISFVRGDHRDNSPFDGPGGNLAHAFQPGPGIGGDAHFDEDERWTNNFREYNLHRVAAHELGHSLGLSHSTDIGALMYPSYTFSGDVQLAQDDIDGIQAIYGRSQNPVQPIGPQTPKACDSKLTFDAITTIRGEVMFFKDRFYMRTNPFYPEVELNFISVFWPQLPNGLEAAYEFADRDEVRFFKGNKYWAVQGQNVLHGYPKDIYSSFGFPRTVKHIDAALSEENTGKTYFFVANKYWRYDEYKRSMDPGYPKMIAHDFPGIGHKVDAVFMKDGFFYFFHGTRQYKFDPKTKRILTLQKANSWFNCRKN

In assay [3] the target is Collagenase 3 (Homo sapiens, UniProt P45452).

pIC50, pKi: −log10 of the molar value.

Take `CC(C)CN(CC(=O)NO)S(=O)(=O)c1ccc(OCC2CCCCC2)cc1` [2-{[4-(cyclohexylmethoxy)benzene](2-methylpropyl)sulfonamido}-N-hydroxyacetamide]: in assay [1], the negative logarithm of the Ki (pKi) (as a rule, −log10 of the Ki, conventionally taken in molar units) is 7.22.

Take `CCc1cccc2c(N(Cc3ccccc3)S(=O)(=O)c3ccc(OC)cc3)c(C(=O)NO)cnc12` [4-[Benzyl-(4-methoxy-benzenesulfonyl)-amino]-8-ethyl-quinoline-3-carboxylic acid hydroxyamide]: in assay [2], the negative-log IC50 (pIC50) (in general, −log10 of the IC50, conventionally taken in molar units) was 6.72.

In assay [3], `COc1ccc(S(=O)(=O)N2CCN(C(=O)COc3ccccc3)CC2C(=O)NO)cc1` (stereo not drawn) [N-hydroxy-1-(4-methoxyphenylsulfonyl)-4-(2-phenoxyacetyl)piperazine-2-carboxamide] had a negative-log IC50 (pIC50) of 8.66.
